Test [1] addresses T1, recombinant PRL-1 (Homo sapiens, UniProt Q93096).
T1 sequence (Q93096 1-173): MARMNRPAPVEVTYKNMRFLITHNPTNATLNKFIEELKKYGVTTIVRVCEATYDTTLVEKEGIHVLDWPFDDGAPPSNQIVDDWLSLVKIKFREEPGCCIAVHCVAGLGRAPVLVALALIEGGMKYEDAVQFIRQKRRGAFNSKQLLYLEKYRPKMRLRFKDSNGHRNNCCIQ
The test can be described thus: In vitro phosphatase assay (DiFMUP hydrolysis), PRL-1. Further: test concentration or dose not given here. The following applies: FDA-approved drug screen.

The target in test [2] is T2, recombinant PRL-2 (Homo sapiens, UniProt Q12974).
T2 sequence (Q12974 1-167): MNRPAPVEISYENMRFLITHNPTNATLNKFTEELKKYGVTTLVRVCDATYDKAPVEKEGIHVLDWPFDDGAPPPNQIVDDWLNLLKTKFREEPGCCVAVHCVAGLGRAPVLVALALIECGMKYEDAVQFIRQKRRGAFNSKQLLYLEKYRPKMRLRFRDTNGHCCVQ
The test can be described thus: In vitro phosphatase assay (DiFMUP hydrolysis), PRL-2.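 Further: PRL-2 activity read as DiFMUP hydrolysis after 20 min at room temperature with drug, enzyme first pre-reduced at 4 °C for 20 min.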

Molecules are shown by their SMILES.

As for `CC1(C)S[C@@H]2[C@H](NC(=O)[C@H](N)c3ccc(O)cc3)C(=O)N2[C@H]1C(=O)O` [Amoxicillin], in test [1], the “% Phosphatase Activity (compared to DMSO) PRL-1” value amounted to 125%.
For `CN/C(=N/CCSCc1nc[nH]c1C)NC#N` [Cimetidine], the “% Phosphatase Activity (compared to DMSO) PRL-2” value in test [2] was determined as 113%.

(Values after article PMC8119466, “A screen of FDA-approved drugs identifies inhibitors of protein tyrosine phosphatase 4A3 (PTP4A3 or PRL-3)” (Scientific Reports, 2021).)
